This is an account of results in article doi:10.1101/557132.

By UniProt entry, the sequences of proteins in these tests, tags left out. Residues count along the entry.
UniProt P43220, 24-463: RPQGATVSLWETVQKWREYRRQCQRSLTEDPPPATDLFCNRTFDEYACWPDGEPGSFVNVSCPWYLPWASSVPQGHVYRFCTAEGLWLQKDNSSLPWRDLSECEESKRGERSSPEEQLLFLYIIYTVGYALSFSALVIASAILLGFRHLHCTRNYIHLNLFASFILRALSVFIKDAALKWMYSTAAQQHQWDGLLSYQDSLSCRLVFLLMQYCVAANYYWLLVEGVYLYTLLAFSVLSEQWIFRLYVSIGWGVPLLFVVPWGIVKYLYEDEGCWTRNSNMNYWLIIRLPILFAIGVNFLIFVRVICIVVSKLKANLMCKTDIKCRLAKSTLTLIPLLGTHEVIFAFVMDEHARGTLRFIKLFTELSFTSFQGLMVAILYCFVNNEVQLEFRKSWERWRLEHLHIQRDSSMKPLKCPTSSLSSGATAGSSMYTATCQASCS

This test deals with human SNAP_GLP1R on CHO-K1 cells (human) (UniProt P43220).

For the substance Exendin4(1-39) (peptide), the cAMP production (cAMP-Glo), positive control came out at 18.3 nM.
